Source: PMC2756574, “Crystal Structures of Multidrug Binding Protein TtgR in Complex with Antibiotics and Plant Antimicrobials” (Journal of Molecular Biology, 2007)

The chains behind the UniProt entries cited, without tags or fusion partners.
UniProt Q9AIU0, whole entry R176G: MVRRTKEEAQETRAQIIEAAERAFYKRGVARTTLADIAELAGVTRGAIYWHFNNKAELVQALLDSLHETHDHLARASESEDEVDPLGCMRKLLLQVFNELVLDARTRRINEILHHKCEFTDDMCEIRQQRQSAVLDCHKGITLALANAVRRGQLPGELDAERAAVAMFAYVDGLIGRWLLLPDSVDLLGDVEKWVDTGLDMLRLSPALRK

Molecular target: TtgR (Pseudomonas putida, UniProt Q9AIU0, R176G)
Experiment: biochemical

Question: With `O=C1C[C@@H](c2ccc(O)cc2)Oc2cc(O)cc(O)c21` [naringenin] as the compound, how does the Kd read?
Answer: 28.9 ± 2.5 µM
